Literature values as cited in patent US20250368636A1, “NOVEL HETEROCYCLIC COMPOUND, SALT THEREOF, AND L[…] COMPOSITION” (The University of Electro-Communications, priority 2022, published 2025).

Protein sequences, listed by entry. Tags and fused reporters are not part of them.
UniProt P08659, whole entry: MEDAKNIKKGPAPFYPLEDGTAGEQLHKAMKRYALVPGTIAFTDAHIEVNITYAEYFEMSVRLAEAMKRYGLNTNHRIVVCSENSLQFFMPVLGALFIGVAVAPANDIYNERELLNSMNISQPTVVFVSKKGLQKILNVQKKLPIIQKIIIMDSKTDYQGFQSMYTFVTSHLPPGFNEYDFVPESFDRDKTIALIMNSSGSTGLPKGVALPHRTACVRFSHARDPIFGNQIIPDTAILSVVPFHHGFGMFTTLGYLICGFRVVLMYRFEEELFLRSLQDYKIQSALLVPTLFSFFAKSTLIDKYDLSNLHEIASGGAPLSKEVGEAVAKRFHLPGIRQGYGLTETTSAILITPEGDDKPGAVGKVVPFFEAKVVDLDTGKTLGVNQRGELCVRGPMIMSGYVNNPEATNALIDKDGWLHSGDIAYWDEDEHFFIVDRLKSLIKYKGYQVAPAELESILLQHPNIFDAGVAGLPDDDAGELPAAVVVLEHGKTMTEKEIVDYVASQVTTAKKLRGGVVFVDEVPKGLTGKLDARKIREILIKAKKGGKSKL

Target: firefly luciferase (Luc) (Photinus pyralis, UniProt P08659)
Details: in the presence of Luc, ATP and Mg2+; background, prior art; cited from earlier work

For `O=C(O)[C@H]1CSC(c2nc3ccc(O)cc3s2)=N1` [firefly luciferin (LH2), firefly luciferin], which “Emission wavelength / peak wavelength of emission spectrum” value is on record?
Its value is “approximately 560 nm”.
